{
  "source": "paper PMC12217461",
  "about": "“The emerging concern of IMP variants being resistant to the only IMP-type metallo-β-lactamase inhibitor, xeruborbactam” (Antimicrobial Agents and Chemotherapy, 2025)",
  "molecular_target": "T1, NDM-1 S262G (Klebsiella pneumoniae, UniProt C7C422, S249G)",
  "T1 construct": "made in house; host or cells: E. coli TOP10 (crude extract)",
  "assay": "IC50, inhibition of cephalothin hydrolysis",
  "format": "biochemical",
  "details": "crude enzyme extract, 100 µM cephalothin, 3 min pre-incubation; read-out: IC50 against NDM-1 S262G",
  "data": [
    {"smiles": "O=C(O)c1c(F)ccc2c1OB(O)[C@@H]1C[C@H]21", "note": "[xeruborbactam]", "values": [
      {"measurement": "IC50", "result": "> 200", "unit": "µM"}
    ]}
  ]
}
